The source made the active and inactive calls. No cut-off for these calls is given here.
Key:
[1] = Half life in simulated intestinal fluid at 20 uM by LC-MS/MS analysis; assay type: ADME
[2] = system: Rattus norvegicus; assay: Anti-colitis activity in Sprague-Dawley rat model of DSS-induced colitis assessed as improvement in stool consistency scores level at 20 mg/kg, po dosed 3 times per day; assay type: functional, organism-based
[3] = system: Rattus norvegicus; assay: Anti-colitis activity in Sprague-Dawley rat model of DSS-induced colitis assessed as change in body weight at 30 mg/kg, ip dosed 3 times per day (-6.39 +/- 1.11%); assay type: functional
[4] = system: Rattus norvegicus; assay: Anti-colitis activity in Sprague-Dawley rat model of DSS-induced colitis assessed as reduction in colon macroscopic scores at 20 mg/kg, po dosed 3 times per day; assay type: functional, organism-based
[5] = system: Rattus norvegicus; assay: Anti-colitis activity in Sprague-Dawley rat model of DSS-induced colitis assessed as change in body weight at 20 mg/kg, po dosed 3 times per day (-6.39 +/- 1.11%); assay type: functional
[6] = Half life in DTT at 50 uM up up to 120 mins by reverse phase HPLC and UV detection based assay; assay type: physicochemical
[7] = system: Rattus norvegicus; assay: Anti-colitis activity in Sprague-Dawley rat model of DSS-induced colitis assessed as improvement in hematocrit scores level at 20 mg/kg, po dosed 3 times per day; assay type: functional, organism-based
[8] = Half life in simulated gastric fluid at 20 uM by LC-MS/MS analysis; assay type: ADME
[9] = system: PBMC; assay: Inhibition of IL12-stimulated IFNgamma production in PHA-activated human PBMC at 0.0001 to 100 uM by ELISA; assay type: functional, cell-based

Row | half-life at 20 µM [1] [h] | half-life at 20 µM [8] [h] | SMILES | also measured
1 | > 6 | 2 to 6 | CC(=O)N[C@H](C(=O)N[C@H]1CCSC[C@@H](C(=O)N[C@@H](Cc2ccc(OCCN)cc2)C(=O)N[C@@H](Cc2ccc3ccccc3c2)C(=O)N[C@@](C)(CCCCN)C(=O)N[C@@H](CCC(=O)O)C(=O)N[C@@H](CC(N)=O)C(=O)N[C@@H](CC(N)=O)C(N)=O)NC(=O)[C@H](CCC(N)=O)NC(=O)[C@H](Cc2c[nH]c3ccccc23)NC(=O)[C@H]([C@@H](C)O)NC(=O)[C@H](CCC(N)=O)NC1=O)[C@@H](C)O | –
2 | > 6 | 2 to 3 | CC(=O)N[C@H](CCC(N)=O)C(=O)N[C@H]1CCSC[C@@H](C(=O)N[C@@H](Cc2ccc(OCCN)cc2)C(=O)N[C@@H](Cc2ccc3ccccc3c2)C(=O)N[C@@](C)(CCCCN)C(=O)N[C@@H](CCC(=O)O)C(=O)N[C@@H](CC(N)=O)C(=O)N[C@@H](CC(N)=O)C(N)=O)NC(=O)[C@H](CCC(N)=O)NC(=O)[C@H](Cc2c[nH]c3ccccc23)NC(=O)[C@H]([C@@H](C)O)NC(=O)[C@H](CCC(N)=O)NC1=O | –
3 | 1 to 6 | > 6 | CC(=O)N[C@H]1CCSC[C@@H](C(=O)N[C@@H](Cc2ccc(OCCN)cc2)C(=O)N[C@@H](Cc2ccc3ccccc3c2)C(=O)NC2(C(=O)N[C@@H](CCC(=O)O)C(=O)N[C@@H](CC(N)=O)C(=O)N[C@@H](CC(N)=O)C(N)=O)CC2)NC(=O)[C@H](CCC(N)=O)NC(=O)[C@H](Cc2c[nH]c3ccccc23)NC(=O)[C@H]([C@@H](C)O)NC(=O)[C@H](CCC(N)=O)NC1=O | –
4 | > 6 | 3 to 6 | CC(=O)N[C@H](CCCNC(=N)N)C(=O)N[C@H]1CCSC[C@@H](C(=O)N[C@@H](Cc2ccc(OCCN)cc2)C(=O)N[C@@H](Cc2ccc3ccccc3c2)C(=O)N[C@@](C)(CCCCN)C(=O)N[C@@H](CCC(=O)O)C(=O)N[C@@H](CC(N)=O)C(=O)N[C@@H](CC(N)=O)C(N)=O)NC(=O)[C@H](CCC(N)=O)NC(=O)[C@H](Cc2c[nH]c3ccccc23)NC(=O)[C@H]([C@@H](C)O)NC(=O)[C@H](CCC(N)=O)NC1=O | –
5 | 3 to 6 | 3 to 6 | CC(=O)N[C@H]1CCSC[C@@H](C(=O)N[C@@H](Cc2ccc(OCCN)cc2)C(=O)N[C@@H](Cc2ccc3ccccc3c2)C(=O)N[C@@](C)(CCCCN)C(=O)N[C@@H](CCC(=O)O)C(=O)N[C@@H](CC(N)=O)C(=O)N[C@@H](CC(N)=O)C(N)=O)NC(=O)[C@H](CCC(N)=O)NC(=O)[C@H](Cc2c[nH]c3ccccc23)NC(=O)[C@H]([C@@H](C)O)NC(=O)[C@H](CCC(N)=O)NC1=O | –
6 | 3 to 6 | 2 to 3 | CC(=O)N[C@H](Cc1ccccc1)C(=O)N[C@H]1CCSC[C@@H](C(=O)N[C@@H](Cc2ccc(OCCN)cc2)C(=O)N[C@@H](Cc2ccc3ccccc3c2)C(=O)N[C@@](C)(CCCCN)C(=O)N[C@@H](CCC(=O)O)C(=O)N[C@@H](CC(N)=O)C(=O)N[C@@H](CC(N)=O)C(N)=O)NC(=O)[C@H](CCC(N)=O)NC(=O)[C@H](Cc2c[nH]c3ccccc23)NC(=O)[C@H]([C@@H](C)O)NC(=O)[C@H](CCC(N)=O)NC1=O | –

Row | SMILES | half-life at 20 µM [1] [h] | half-life at 20 µM [8] [h] | also measured
7 | COc1ccc(C[C@H](NC(=O)[C@@H]2CSCC[C@H](NC(C)=O)C(=O)N[C@@H](CCC(N)=O)C(=O)N[C@@H]([C@@H](C)O)C(=O)N[C@@H](Cc3c[nH]c4ccccc34)C(=O)N[C@@H](CCC(N)=O)C(=O)N2)C(=O)N[C@@H](Cc2ccc3ccccc3c2)C(=O)N[C@@](C)(CCCCN)C(=O)N[C@@H](CCC(=O)O)C(=O)N[C@@H](CC(N)=O)C(=O)NCC(N)=O)cc1 | 2 to 3 | < 1 | Activity [2]: Active; Activity [3]: -0.5%; Activity [4]: Active; Activity [5]: 3.18%; half-life at 50 µM [6]: > 2 h; Activity [7]: Active; inhibition [9]: inactive

— ChEMBL document CHEMBL4417631, “Oral peptide inhibitors of interleukin-23 receptor and their use to treat inflammatory bowel diseases” (2017)
